In PMC10812557, “Progressive Design of a Ranatuerin-2 Peptide from Amolops wuyiensis: Enhancement of Bioactivity and In Vivo Efficacy” (Antibiotics, 2023):

How the values were obtained:
Assay type in all cases: cell-based
MRSA (NCTC 12493) = tested on: MRSA (NCTC 12493)
From the text: (§1) The MIC and MBC assays were used to assess the inhibitory activities of all 5 analogues of R2AW on the growth of planktonic microorganisms. The MIC is the lowest concentration that prevents the viable growth of bacteria. The MBC is the lowest concentration that results in bacterial death. Six microorganisms were used to detect the antimicrobial activity of peptides, including Gram-positive bacteria S. aureus (NCTC 10788), MRSA (NCTC 12493), Enterococcus faecalis (E. faecalis) (NCTC 12697), Gram-negative bacteria E. coli […], Klebsiella pneumoniae (K. pneumoniae) (ATCC 43816), and Pseudomonas aeruginosa (P. aeruginosa) (ATCC 9027). According to the assay described previously, the microorganisms were inoculated at 37 °C overnight and diluted to 5 × 10^5 CFU/mL after reaching the logarithmic growth period. The peptide stock solution at the concentration of 512 × 10^2 μM was prepared and diluted to 100 μM by a 2-fold dilution. One μL of each concentration of peptide solution was incubated with 99 μL of bacterial subculture in the 96-well plate for 18 h at 37 °C. The absorbance was determined at a wavelength of 550 nm using a Synergy HT plate reader (Bio Tek, Washington, DC, USA). […] As for those wells that were clearly visible, 20 μL of the solution was dropped onto the Mueller Hinton agar (MHA) dish and then incubated at 37 °C overnight. The lowest concentration with no colony growth was determined as the MBC.

E. coli (ATCC 8739) = tested on: E. coli (ATCC 8739)
From the text: as §1

S. aureus (NCTC 10788) = tested on: S. aureus (NCTC 10788)
From the text: as §1

[1] = tested on: P. aeruginosa (ATCC 9027)
From the text: as §1

## CC[C@H](C)[C@H](NC(=O)CN)C(=O)NCC(=O)N[C@@H](C)C(=O)N[C@H](C(=O)N[C@@H](CC(C)C)C(=O)N[C@@H](CCCCN)C(=O)N[C@H](C(=O)N[C@@H](CC(C)C)C(=O)N[C@H](C(=O)N[C@H](C(=O)NCC(=O)N[C@@H](CC(C)C)C(=O)N1CCC[C@H]1C(=O)N[C@@H](C)C(=O)N[C@@H](CC(C)C)C(=O)N[C@H](C(=O)N[C@@H](CO)C(=O)N[C@@H](Cc1c[nH]c2ccccc12)C(=O)N[C@H](C(=O)N[C@@H](CCCCN)C(=O)N[C@@H](CCCNC(=N)N)C(=O)N[C@@H](CCCCN)C(=O)N[C@@H](CCCNC(=N)N)C(=O)N[C@@H](CCC(N)=O)C(=O)N[C@@H](CCC(N)=O)C(N)=O)[C@@H](C)CC)[C@@H](C)CC)[C@@H](C)O)[C@@H](C)O)C(C)C)C(C)C [Melittin, reference compound]
MRSA (NCTC 12493)
  MIC: 2 µM
E. coli (ATCC 8739)
  MIC: 4 µM
S. aureus (NCTC 10788)
  MIC: 2 µM
[1]
  MIC: 16 µM
